Assay results taken from PubChem BioAssay (NCI).
Some tests of the compounds listed are not included; inactive here does not mean inactive elsewhere.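 96-well plates; 48 h exposure; 5 concentrations. Endpoints by linear interpolation between flanking doses. Not reached: highest tested concentration assigned. The concentration for 50% growth inhibition is given as GI50. TGI: concentration producing complete growth inhibition.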

How the values were obtained:
Assay in all cases: growth of human tumour cells (NCI), 48 h; in the data active means GI50 below about 0.43 µM; inactive means the rest
[1] = test system: SF-295 CNS
[2] = test system: HS 578T breast
[3] = test system: UACC-62 melanoma
[4] = test system: MCF7 breast
[5] = test system: SK-OV-3 ovarian
[6] = test system: SR leukemia
[7] = test system: NCI/ADR-RES ovarian
[8] = test system: UACC-257 melanoma
[9] = test system: CCRF-CEM leukemia
[10] = test system: UO-31 renal
[11] = test system: A549 NSCLC
[12] = test system: DU-145 prostate
[13] = test system: OVCAR-5 ovarian
[14] = test system: K-562 leukemia
[15] = test system: T-47D breast
[16] = test system: LOX IMVI melanoma
[17] = test system: RPMI-8226 leukemia
[18] = test system: HCT-15 colon
[19] = test system: NCI-H226 lung
[20] = test system: SK-MEL-28 melanoma
[21] = test system: MDA-MB-231 breast
[22] = test system: COLO 205 colon
[23] = test system: HL-60(TB) leukemia
[24] = test system: SN12C renal
[25] = test system: ACHN renal
[26] = test system: EKVX NSCLC
[27] = test system: SF-268 CNS
[28] = test system: HT29 colon

O=C(OC1CN2CCC1CC2)C(O)(C#Cc1ccccc1)c1ccccc1 (stereo unspecified)
> 100 µM: TGI [1] | TGI [2] | TGI [3] | TGI [4] | TGI [5] | TGI [6] | TGI [7] | TGI [8] | TGI [9] | TGI [10] | TGI [11] | TGI [12] | TGI [13] | TGI [14] | TGI [15] | TGI [16] | TGI [17] | TGI [18] | TGI [19] | TGI [20] | TGI [21] | TGI [22] | TGI [23] | TGI [24] | TGI [25] | TGI [26] | TGI [27] | TGI [28]
inactive: GI50 [1] > 100 µM | GI50 [2] > 100 µM | GI50 [3] > 100 µM | GI50 [4] > 100 µM | GI50 [5] > 100 µM | GI50 [6] > 100 µM | GI50 [7] > 100 µM | GI50 [8] > 100 µM | GI50 [9] > 100 µM | GI50 [10] > 100 µM | GI50 [11] > 100 µM | GI50 [12] > 100 µM | GI50 [13] > 100 µM | GI50 [14] > 100 µM | GI50 [15] > 100 µM | GI50 [16] > 100 µM | GI50 [17] > 100 µM | GI50 [18] > 100 µM | GI50 [19] > 100 µM | GI50 [20] > 100 µM | GI50 [21] > 100 µM | GI50 [22] > 100 µM | GI50 [23] > 100 µM | GI50 [24] > 100 µM | GI50 [25] > 100 µM | GI50 [26] > 100 µM | GI50 [27] > 100 µM | GI50 [28] > 100 µM
